Experimental data reported in PMC7143076, “Anion Inhibition Studies of the β-Class Carbonic Anhydrase CAS3 from the Filamentous Ascomycete Sordaria macrospora” (Metabolites, 2020).

Amino acid sequences for entries named in this document (tags omitted). Residues count along the entry.
UniProt F7VU04, 1-174 limits assumed: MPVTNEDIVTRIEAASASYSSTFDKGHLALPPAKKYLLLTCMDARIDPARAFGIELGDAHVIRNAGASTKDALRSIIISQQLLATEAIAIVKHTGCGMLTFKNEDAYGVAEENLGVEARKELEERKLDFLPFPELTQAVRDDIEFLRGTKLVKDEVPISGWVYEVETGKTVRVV

Target: CAS3 (Sordaria macrospora, UniProt F7VU04)
Test: stopped-flow CO2 hydrase assay
Format: biochemical
Settings: read-out: CAS3 ^c; CO2 1.7-17 mM; pH 8.3, 10-20 mM TRIS, 10 mM NaClO4, 20 °C; 15 min preincubation; sodium salt

With `O=[As](O)(O)c1ccccc1` the Ki was 91 µM.
